Assay results taken from ChEMBL document CHEMBL1128495, “Synthetic chemical diversity: solid phase synthesis of libraries of C2 symmetric inhibitors of HIV protease containing diamino diol and diamino alcohol cores” (J Med Chem, 1995).

Target: Human immunodeficiency virus type 1 protease (Human immunodeficiency virus 1, UniProt Q72874)
Assay: Inhibition of HIV protease
How it was run: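 Fluorometric HIV protease activity assay on unpurified samples. Concentrations were calculated from the weight of unpurified material, with no correction for impurities. Each sample was tested at 3–5 concentrations where feasible, and IC50 was derived from the percent-inhibition data.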

SMILES: CC(C)[C@H](NC(=O)CSc1ncccn1)C(=O)N[C@@H](Cc1ccccc1)[C@@H](O)[C@H](O)[C@H](Cc1ccccc1)NC(=O)[C@@H](NC(=O)CSc1ncccn1)C(C)C
- IC50: 16 nM

SMILES: COc1cc(CC(=O)N[C@H](C(=O)N[C@@H](Cc2ccccc2)[C@@H](O)[C@H](O)[C@H](Cc2ccccc2)NC(=O)[C@@H](NC(=O)Cc2cc(OC)c(OC)c(OC)c2)C(C)C)C(C)C)cc(OC)c1OC
- IC50: 3.4 nM
